According to patent US20090215650A1, “SUBSTRATES WITH STABLE SURFACE CHEMISTRY FOR BIOLOGICAL MEMBRANE ARRAYS AND METHOD FOR FABRICATING THEREOF” (priority 2002, published 2009):
Entries after “also recorded” stand apart in the source; their conditions may differ.

Test: Stability of lipid arrays with or without BSA on drawing through water/air interface
Conditions: buffer with 0.1% BSA vs buffer only; drawn 5 times through water/air interface, rinsing, drying
Experimental: Lipid microarrays were generated using either a contact printing technique (e.g., quill pin) or manual spotting on a slide surface, and incubated in a humid chamber at room temperature. Afterwards, the lipid microarrays were covered by buffer with or without generic proteins (between ˜0.01% and ˜1%), and incubated for ten minutes. The lipid arrays were then rinsed with buffer to remove unbound proteins.
To evaluate the stability of the lipid arrays, the printed slides were drawn through a water/air interface several times, and then imaged in a fluorescence microscope or a scanner. To evaluate the functionality of lipid/protein arrays, fluorescent dye-labeled probe molecules were introduced into the solution, followed by rinsing to remove unbound molecules, drying, and imaging.
Arrays of lipids containing either 1% (mol) Texas Red-DHPE or 2% biotin-x-DHPE were printed onto bare glass slides, Corning GAPS slides and Brij-MHA-gold surfaces. On each slide there were two 4×4 arrays. One array was covered with buffer containing 0.1% BSA, while the second array was covered with buffer in the absence of BSA. After 10 minutes these slides were drawn through the water/air interface 5 times. […] After drawing the slides through the interface, the lipid arrays were covered again by buffer and further examined in a fluorescence microscope or scanner.

**Q.** For bovine serum albumin [BSA], which “stability of lipid arrays” value is on record?
**A.** significantly increases the stability of lipid arrays; also recorded: protects the lipid arrays from being removed from the surfaces
